Source: ChEMBL document CHEMBL1148684, “Benzimidazole-2-carboxamides as novel NR2B selective NMDA receptor antagonists” (Bioorg Med Chem Lett, 2006)

How the values were obtained:
[1] = molecular target: Glutamate receptor ionotropic, NMDA 2B (Rattus norvegicus, UniProt Q00960); test: Displacement of [3H]Ro25-6981 from NR2B NMDA receptor in rat forebrain membrane; assay type: cell membranes
Glutamate NMDA receptor = test: Inhibition of NMDA-evoked increase in intracellular calcium ion in rat cortical cells; assay type: functional, cell-based

## O=C(/C=C/c1ccc(O)cc1)N1CCC(Cc2ccccc2)CC1
[1]
  IC50: 196 nM
Glutamate NMDA receptor
  IC50: 191 nM
